Assay results taken from paper PMC6759758, “Cofactor Selectivity in Methylmalonyl Coenzyme A Mutase, a Model Cobamide-Dependent Enzyme” (mBio, 2019).

System: SmMCM (methylmalonyl-CoA mutase from S. meliloti)
Format: binding, Sinorhizobium meliloti
Settings: SmMCM Kd versus P. shermanii MCM Kd of ref 89
Procedure: All steps involving cobamides were conducted in the dark. The plate was centrifuged for 1 min at 3,800 rpm to level the surface of the liquid in each well. The plate was then incubated for 40 min at 30°C to allow binding, with a brief shaking step after 30 min. […] Following incubation, fluorescence emission at 340 nm (5-nm slit width) was measured upon excitation at 282 nm (5-nm slit width) using a Tecan Infinite M1000 Pro plate reader. Fluorescence, normalized to the initial value, was plotted as a function of cobamide concentration, and fitted to the following equation ([134]): F/F0=1+ΔFmax/F0([E]+[L]+Kd)−([E]+[L]+Kd)^2−4[E][L]/2[E] where F is fluorescence, F0 is initial fluorescence, [E] is total enzyme concentration, [L] is total ligand concentration, and Kd is the binding dissociation constant.

C/C1=C2/[N-][C@H]([C@H](CC(N)=O)[C@@]2(C)CCC(=O)NC[C@@H](C)OP(=O)([O-])O[C@H]2[C@@H](O)[C@@H](n3cnc4cc(C)c(C)cc43)O[C@@H]2CO)[C@]2(C)N=C(/C(C)=C3N=C(/C=C4N=C1[C@@H](CCC(N)=O)C\4(C)C)[C@@H](CCC(N)=O)[C@]\3(C)CC(N)=O)[C@@H](CCC(N)=O)[C@]2(C)CC(N)=O.[CH2-][C@H]1O[C@@H](n2cnc3c(N)ncnc32)[C@H](O)[C@@H]1O.[Co+3] [AdoCbl, adenosylcobalamin, reference compound]
Kd fold lower than the Kd reported for P. shermanii MCM: 6 fold
